Laboratory results published in US12570642B2, “GLP-IR modulating compounds” (Gilead Sciences, Inc., priority 2021, dated 2026).
This is a selection: effects in other tests are not listed, and their absence says nothing.

Protein sequences, listed by entry. Tags and fused reporters are not part of them. Residues count along the entry.
UniProt P43220, 24-463 limits assumed: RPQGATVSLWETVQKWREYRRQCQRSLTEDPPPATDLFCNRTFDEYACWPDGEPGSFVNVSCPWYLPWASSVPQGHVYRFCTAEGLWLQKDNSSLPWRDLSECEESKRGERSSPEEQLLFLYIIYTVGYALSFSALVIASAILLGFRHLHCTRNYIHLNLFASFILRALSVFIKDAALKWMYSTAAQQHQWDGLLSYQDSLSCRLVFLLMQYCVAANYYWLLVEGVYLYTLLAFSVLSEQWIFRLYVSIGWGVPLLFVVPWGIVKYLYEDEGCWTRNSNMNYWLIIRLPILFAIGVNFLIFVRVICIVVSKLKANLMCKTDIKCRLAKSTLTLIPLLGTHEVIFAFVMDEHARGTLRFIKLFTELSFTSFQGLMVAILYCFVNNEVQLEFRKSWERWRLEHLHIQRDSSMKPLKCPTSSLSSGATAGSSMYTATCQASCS

Target: GLP-1R (Homo sapiens, UniProt P43220)
Test: GLP-1R Activation - cAMP Assay
Conditions: read-out: GLP-1R Activation - Assay EC50; cAMP increase in CHO cells stably expressing GLP-1R; each compound run on one of the two cAMP assays (Assay 1 or Assay 2, not specified)
Description: GLP-1R Activation—cAMP Assay 1
GLP-1R activation by compounds of the present disclosure were quantified by measuring cAMP increase in CHO cells stably expressing GLP-1R (MultiSpan product #C1267-1a). The cells were harvested and plated in growth medium (DMEM/F-12 (Corning product #10-090-CV) supplemented with 10% FBS (HyClone product #SH30071-03), penicillin/streptomycin (Corning product #30-002CI) and 10 μg/ml puromycin (Gibco product #A11138-03)) at 1,000 cells/well in a 384-well plate (Greiner product #781080). The cells were then incubated overnight at 37° C., 5% CO2. The next day, the medium was removed and the cells were washed with DPBS (Corning product #21-031-CM) before adding the assay medium (HBSS, Corning product #21-023-CV) with 20 mM Hepes (Gibco product #15630-080) and 0.1% BSA (Rockland Immunochemicals product #BSA-1000)). Following the medium change, the cells were incubated for 1 hour at 37° C., 5% CO2. The tested GLP-1 compound was added to the cells in a 10-point dose response followed by a 30 minutes incubation at 37° C., 5% CO2. cAMP concentration increase was then detected using Cisbio's cAMP Gs Dynamic Kit (product #62AM4PEC) according to the manufacturer's protocol. The response was plotted against the log of the agonist concentration and fitted to a sigmoidal equation to determine the EC50.

Work on `N#Cc1ccc(COc2cccc(-c3cc(F)c(Cc4nc5ccc(C(=O)O)cc5n4CC4(N)CCOC4)cc3F)n2)c(F)c1` (stereo not shown) yielded an EC50 of 0.717 nM.
